Consider 3 compounds from patent US20220363689A1, “INHIBITOR OF BTK AND MUTANTS THEREOF” (Newave Pharmaceutical Inc., priority 2019, published 2022).

Amino acid sequences for entries named in this document (tags omitted). A change or cut given only in a name is not applied to a line headed by its entry.
UniProt Q06187, whole entry: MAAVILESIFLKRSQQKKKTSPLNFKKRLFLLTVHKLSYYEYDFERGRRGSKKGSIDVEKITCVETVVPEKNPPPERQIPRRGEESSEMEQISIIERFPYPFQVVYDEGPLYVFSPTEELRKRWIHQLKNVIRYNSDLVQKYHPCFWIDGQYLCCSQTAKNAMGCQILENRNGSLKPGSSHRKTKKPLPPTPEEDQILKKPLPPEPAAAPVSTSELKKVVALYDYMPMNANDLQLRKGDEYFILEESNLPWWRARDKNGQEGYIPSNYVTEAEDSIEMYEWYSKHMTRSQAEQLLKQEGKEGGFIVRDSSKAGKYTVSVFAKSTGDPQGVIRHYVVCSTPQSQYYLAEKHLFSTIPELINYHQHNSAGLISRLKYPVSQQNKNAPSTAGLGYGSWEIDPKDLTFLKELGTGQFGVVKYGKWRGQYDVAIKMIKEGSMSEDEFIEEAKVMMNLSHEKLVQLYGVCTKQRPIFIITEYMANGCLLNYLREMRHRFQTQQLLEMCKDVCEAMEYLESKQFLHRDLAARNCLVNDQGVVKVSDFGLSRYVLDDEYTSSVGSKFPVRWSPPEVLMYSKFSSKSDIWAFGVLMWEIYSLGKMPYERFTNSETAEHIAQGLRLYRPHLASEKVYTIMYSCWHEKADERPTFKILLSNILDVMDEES
UniProt Q06187, whole entry C481S: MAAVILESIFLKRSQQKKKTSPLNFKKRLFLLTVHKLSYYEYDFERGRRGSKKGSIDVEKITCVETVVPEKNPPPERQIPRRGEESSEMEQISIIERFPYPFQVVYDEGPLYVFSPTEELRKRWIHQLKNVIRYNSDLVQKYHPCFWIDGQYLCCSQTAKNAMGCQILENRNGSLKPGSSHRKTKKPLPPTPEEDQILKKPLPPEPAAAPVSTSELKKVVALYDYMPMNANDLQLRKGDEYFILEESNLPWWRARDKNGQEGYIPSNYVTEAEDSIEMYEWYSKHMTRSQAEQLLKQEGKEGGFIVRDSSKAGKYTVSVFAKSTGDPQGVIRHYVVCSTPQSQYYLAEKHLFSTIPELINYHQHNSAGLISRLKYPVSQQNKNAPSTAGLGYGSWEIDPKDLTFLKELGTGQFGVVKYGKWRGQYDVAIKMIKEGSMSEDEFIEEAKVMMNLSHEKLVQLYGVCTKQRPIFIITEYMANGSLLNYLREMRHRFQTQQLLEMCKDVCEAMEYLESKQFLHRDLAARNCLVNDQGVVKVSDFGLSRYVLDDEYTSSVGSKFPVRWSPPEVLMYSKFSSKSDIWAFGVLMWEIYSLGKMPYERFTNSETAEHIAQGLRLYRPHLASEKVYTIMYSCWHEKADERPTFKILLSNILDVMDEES

Type in all cases: biochemical
Experiment [1] deals with T1, WT BTK (Homo sapiens, UniProt Q06187). In words: In vitro dialysis assay (irreversibility assay), WT BTK. To be noted: reversible or irreversible/covalent inhibition after 24 h dialysis.
Experiment [2] concerns the target T1, WT BTK. Nature of the experiment: Caliper-based kinase assay, WT BTK. The note with it: read-out: WT BTK IC50 (nM) (irreversible inhibition); 0.5 nM enzyme, ATP 16 μM, room temperature 3 h.
A further experiment addresses C481S Btk (Homo sapiens, UniProt Q06187, C481S). In words: Caliper-based kinase assay, C481S BTK. To be noted: read-out: C481S BTK IC50 (nM) (reversible inhibition); 0.5 nM enzyme, ATP 16 μM, room temperature 3 h.

What is called IC50 is the midpoint of a concentration-inhibition curve. As to `C=CC(=O)Nc1cc(Nc2nc(-c3ccnc(N4CCn5c(cc6c5CC(C)(C)C6)C4=O)c3CO)cn(C)c2=O)ccc1N1CCN(C2C[C@@H](C)O[C@@H](C)C2)C[C@@H]1C` (stereo partly drawn), the “Conclusion (WT BTK)” value at WT BTK [1] is “Irreversible/covalent inhibition”. For the same compound, the figures for the IC50 on WT BTK [2] and at C481S Btk were 0.068 nM and 0.22 nM, respectively.

Consider `C=CC(=O)Nc1cc(Nc2nc(-c3ccnc(N4CCn5c(cc6c5CC(C)(C)C6)C4=O)c3CO)cn(C)c2=O)ccc1N1CCC(N2CCN(C)CC2)C[C@@H]1C` (stereo partly drawn), for which the “Conclusion (WT BTK)” value on WT BTK [1] is given as “Irreversible/covalent inhibition”. For the same compound, the IC50 on WT BTK [2] was found to be 0.065 nM; at C481S Btk, 0.6 nM.

For the compound `C=CC(=O)Nc1cc(Nc2nc(-c3ccnc(N4CCn5c(cc6c5CC(C)(C)C6)C4=O)c3CO)cn(C)c2=O)ccc1N1CCN(C2CCO[C@H](C)C2)C[C@@H]1C` (stereo partly drawn), the “Conclusion (WT BTK)” value on WT BTK [1] was “Irreversible/covalent inhibition”. Besides, the IC50 is 0.042 nM at WT BTK [2] and 0.35 nM at C481S Btk.
